Experimental data as given in patent US7056935B2, “Rotamase enzyme activity inhibitors” (GPI NIL Holdings, Inc., priority 1995, dated 2006).
pKi: −log10 of the molar value.

Amino acid sequences for entries named in this document (tags omitted).
UniProt P62942, whole entry: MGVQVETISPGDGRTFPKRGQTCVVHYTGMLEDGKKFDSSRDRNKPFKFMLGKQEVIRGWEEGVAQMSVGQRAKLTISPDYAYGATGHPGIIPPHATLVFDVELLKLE

Molecular target: FKBP (Homo sapiens, UniProt P62942)
Assay: Ki test procedure: inhibition of peptidyl-prolyl isomerase (rotamase) activity, chymotrypsin-coupled assay
Type: biochemical
Settings: apparent Ki, substrate N-succinyl-Ala-Phe-Pro-Phe-p-nitroanilide, Table II

COc1cc(C(=O)C(=O)N2CCCCC2C(=O)OC(CCCc2ccccc2)CCc2cccnc2)cc(OC)c1OC [Compound 30, 1-Phenyl-6-(3-pyridyl)-3-hexyl (S)-N-(3,4,5-trimethoxyphenylglyoxyl)pipecolate]
pKi: 8.52
